Screening results from PubChem BioAssay.
Most compounds without a hit are left out; they make up all but 13% or so of the library.
Lamin A splicing – changes lamin A minigene splicing in HeLa cells; HeLa LMNA splicing GFP/RFP minigene ratio, 48 h; Potency, µM (series often up to 46.1 µM), hits mostly inhibitors; 200,000 tested, 0.01% active; active means well fitted inhibition curve with a large enough effect in the signal ratio, with a control signal flat, not every such curve was filed as active; inconclusive means small, poorly fitted or top-dose-only effect, or effect the other way, or a change in a side signal; the % refers to the signal ratio
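Read-out is the ratio of GFP to DsRed2 object intensity, acquired by 488 nm laser-scanning cytometry on HeLa lamin A-EGFP minigene reporter cells. Compound incubation 48 hrs at 37 °C in Opti-MEM with 2% FBS; DMSO 0.5% final.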
miR-21 FLuc – raises the signal of a miR-21 reporter | Potency, µM (doses to about 38.3 µM) | HeLa miR-21 FLuc reporter, luciferase, 48 h | AID 2288 | 340,000 tested, under 10 active; active = well fitted rising curve with a large enough effect; inconclusive = small, poorly fitted or top-dose-only effect; inactive = no such curve, though single readings can be large or run the other way;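 also: miR-21 action dims this reporter so a rising signal means less miR-21 action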
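Luminescence from a firefly luciferase reporter carrying a miR-21 binding site downstream, stably expressed under a CMV promoter in HeLa cells that make miR-21 endogenously, reports miRNA modulation after 48 h compound exposure up to approximately 40uM final.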
Sfp PPTase inh – Sfp phosphopantetheinyl transferase inhibition; Q9F4F7; Biochemical Sfp PPTase activity, qHTS; Potency, µM, most hits filed as inhibitors; 310,000 tested, 3.5% active; AID 1490;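 further: the enzyme is Sfp with the accession as filed and its product quenches rhodamine fluorescence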
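Step 1, compound plus 15 nM Sfp-PPTase, 15 min, room temperature. Step 2, add rhodamine-CoA (5 uM) and BHQ-2-YbbR (12.5 uM). Step 3, read 525/598 nm fluorescence at 0 and 30 min.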
JMJD2E inh – blocks human JMJD2E demethylase activity. Potency, µM (highest dose often 57.1 µM), hits mostly inhibitors. AID 2147. JMJD2E catalytic domain, FDH-coupled NADH fluorescence (FDH is formaldehyde dehydrogenase). 230,000 tested, 1.6% active. B2RXH2; active means well fitted inhibition curve with a large enough effect, not every such curve was filed as active; inconclusive means small, poorly fitted or top-dose-only effect, or another doubt; inactive means no such curve, though single readings can be large or run the other way; further: nearly all actives have a fitted effect of over 50% in size
ALDH1A1 block – inhibitors of human aldehyde dehydrogenase 1A1. P00352. Purified ALDH1A1, NADH fluorescence, propionaldehyde substrate. Potency, µM (top dose mostly 75.3 µM), most hits filed as inhibitors. 220,000 tested, 7.3% active. AID 1030; active means well fitted inhibition curve with a large enough effect, not every such curve was filed as active; inconclusive means small, poorly fitted or top-dose-only effect, or another doubt; inactive means no such curve, though single readings can be large or run the other way
G9a block – inhibitors of human histone lysine methyltransferase G9a. Potency, µM (top dose mostly 102 µM), most hits filed as inhibitors. G9a H3K9 monomethylation, AlphaScreen, 2 h. 350,000 tested, 8.8% active. Q96KQ7; further: nearly all actives have a fitted effect of over 75% in size
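Enzyme 20 nM + cpd, 15 min RT; add b-H3K9 pep 500 nM / SAM 20 uM; 2 h RT; anti-H3K9me1 Ab 0.5 ug/mL + SA donor / anti-rabbit acceptor beads 20 ug/mL each, 10 min; AlphaScreen read.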
Numbers stand for hits; 0 = inactive; ? = inconclusive; - = not tested or not shown; [ ] = remark or other dose. Unless noted, the call rests on the fitted dose curve; in most records, active means well fitted curve in the direction sought with a large enough effect; inconclusive means small, poorly fitted or top-dose-only effect, or another doubt; inactive means no such curve, though single readings can be large; an effect the other way counts as inactive or inconclusive.

SMILES | Lamin A splicing | miR-21 FLuc | Sfp PPTase inh | JMJD2E inh | ALDH1A1 block | G9a block
Cn1c(Cc2ccccc2)n[nH]c1=S | 0 | 0 | 0 | 0 | 0 | 10µM
S=c1[nH]nc(COc2cccc3ccccc23)n1Cc1ccccc1 | - | 0 | 0 | 0 | - | 0
Cn1c(CCc2ccccc2)n[nH]c1=S | ? | 0 | 0 | 0 | 0 | ?
COc1cc(Cl)c(C)cc1NC(=O)Cn1ncc2c1-c1cc(C)ccc1OC2 | - | 0 | - | - | - | 0
COC(=O)C(CCSC)NC(=O)c1cc2c(n(-c3ccc(C)cc3)c1=O)CC(C)(C)CC2=O (stereo not drawn) | - | 0 | - | - | - | ?
CC(=O)C1=C(O)C(=O)N(CO)C1c1ccccc1F (stereo not drawn) | 0 | 0 | 0 | 0 | 0 | 56.2µM
CC(=O)C1=C(O)C(=O)N(c2ccc(O)cc2)C1c1ccccc1F (stereo not drawn) | - | 0 | 0 | - | - | 79.4µM
CC(=O)C1=C(O)C(=O)N(c2ccc(Br)cc2)C1c1ccccc1[N+](=O)[O-] (stereo not drawn) | - | 0 | ? | - | - | 39.8µM
CCc1cccc(C)c1NS(=O)(=O)c1ccc(-n2cccn2)cc1 | - | 0 | - | - | - | 0
O=C(Nc1ccncc1Cl)c1ccncc1 | - | 0 | 0 | - | - | 0
COc1ccc(C(=O)c2c3ccc(C(F)(F)F)cc3[n+]([O-])n2CCCN)cc1 | - | - | - | - | - | 0[2.33 µM]
COc1ccc(CNCc2ccc3c(c2)n(C)c(=O)n3C)cc1 | 0 | 0 | - | - | - | 0
COc1ccc(CNCc2cccc(C)c2)cc1 | - | 0 | 0 | - | - | 10µM
COc1cccc(CNCc2cc(OC)cc(OC)c2)c1 | - | 0 | 0 | - | - | ?
COc1ccc(CNCc2cccc(Oc3ccccc3)c2)cc1 | 0 | 0 | 0 | ? | 14.1µM | 8.91µM
CCOc1ccc(NC(=O)CCC(=O)NNC(=O)COc2ccccc2C)cc1 | - | 0 | 0 | 0 | 0 | -
COC(=O)c1nn(-c2ccc(OC)cc2)c(=O)cc1NN | - | 0 | 0 | 0 | 0 | 44.7µM
COC(=O)c1nn(-c2ccc(OC)cc2)c(=O)c2c(N)sc(C)c12 | 0 | 0 | 35.5µM | 0 | 7.94µM | 10µM
O=c1c2sc3ccccc3c2n(Cc2ccccc2Cl)c(=O)n1Cc1ccccc1 | - | 0 | - | - | - | 0
CCOc1ccc(CNC(=O)c2ccc(NC(=O)N3CCSc4ncccc43)cc2)cc1OC | - | 0 | - | - | - | 0
CC1(C)Cc2c(c(N3CCOCC3)nc3sc(C(=O)Nc4ccccc4)c(N)c23)CO1 | - | 0 | 0 | - | - | 28.2µM
CC1(C)Cc2c(c(N3CCOCC3)nc3sc(C(=O)Nc4cccc(Cl)c4)c(N)c23)CO1 | - | 0 | 44.7µM | - | - | 79.4µM
Cc1cccc(NC(=O)c2sc3nc(N4CCOCC4)c4c(c3c2N)CC(C)(C)OC4)c1 | - | 0 | - | - | - | 0
CCOC(=O)c1sc2nc(N3CCCC3)c3c(c2c1N)CC(C)(C)OC3 | 0 | 0 | 0 | ? | ? | ?
CN(C(=O)c1sc2nc(N3CCCC3)c3c(c2c1N)CC(C)(C)OC3)c1ccccc1 | - | 0 | 0 | - | - | 44.7µM
SMILES | Lamin A splicing | miR-21 FLuc | Sfp PPTase inh | JMJD2E inh | ALDH1A1 block | G9a block
Cc1ccc(CNC(=O)CN2C(=O)C3(OCCCO3)c3ccccc32)cc1 | 0 | 0 | 0 | 0 | ? | 0
CCOC(=O)CN1C(=O)C(O)(C2CCc3ccccc3C2=O)c2ccccc21 (stereo not drawn) | ? | 0 | 0 | 0 | 3.16µM | 0[12.7 µM]
CCOC(=O)CN1C(=O)C2(OCCCO2)c2ccccc21 | ? | 0 | 0 | 0 | 8.91µM | 0[12.7 µM]
CCOC(=O)CN1C(=O)N[C@@H](c2ccccc2)C(C(C)=O)=C1C | 0 | 0 | 0 | 0 | 0 | 0
CCOC(=O)CN1C(=O)C(O)(c2c(C)[nH]c3ccccc23)c2ccccc21 (stereo not drawn) | 0 | 0 | 0 | 0 | 0.282µM | 0[12.7 µM]
CCOC(=O)N1CCN(C(=O)c2ccc(Cn3c(=S)[nH]c4cc(OCC)c(OCC)cc4c3=O)cc2)CC1 | - | 0 | 0 | 0 | 0 | 0
CCOC(=O)N1CCN(C(=O)c2ccc(Cn3c(=S)[nH]c4cc5c(cc4c3=O)OCO5)cc2)CC1 | ? | 0 | 0 | 0 | 0 | 7.08µM
CC1CC(C)CN(C(=O)c2ccc3c(=O)n(Cc4ccc5c(c4)OCO5)c(=S)[nH]c3c2)C1 (stereo not drawn) | ? | 0 | 0 | 0 | 1.41µM | 0
CCN(CC)CCn1c(=S)[nH]c2cc3c(cc2c1=O)OCO3 | 0 | 0 | 79.4µM | 0 | 0 | 44.7µM
CN1CCN(C(=O)c2ccc3c(=O)n(Cc4ccc(Cl)cc4)c(=S)[nH]c3c2)CC1 | ? | 0 | 0 | 0 | 22.4µM | 44.7µM
O=C(c1ccc2c(=O)n(Cc3ccc(Cl)cc3)c(=S)[nH]c2c1)N1CCCC1 | - | 0 | 0 | - | - | 0
O=C(c1ccc2c(=O)n(Cc3ccc4c(c3)OCO4)c(=S)[nH]c2c1)N1CCCCC1 | 0 | 0 | 0 | 0 | 0 | ?
Cc1ccccc1NC(=O)CC1NCCNC1=O (stereo not drawn) | - | 0 | - | - | - | 0
CC(C)(C)C1=Nn2c(nnc2-c2n[nH]c3c2CCC3)SC1 | 0 | 0 | 25.1µM | 0 | ? | ?
CC(=O)n1ccnc1 | - | 0 | 0 | - | - | 0[12.7 µM]
COc1ccc(C(=O)Nc2ccc(C3=NNC(=O)CC3C)cc2NC(=O)c2ccc(OC)cc2)cc1 (stereo not drawn) | 0 | 0 | 0 | ? | 2µM | 0
COc1ccc(C(=O)Nc2ccc(C(=O)O)cc2NC(=O)c2ccc(OC)cc2)cc1 | - | 0 | 0 | - | - | 0
CCCCNC(=O)CCn1c(=O)c2cccn2c2cccnc21 | - | 0 | - | - | - | 0
Cc1ccc(Cl)cc1NC(=S)Nn1cnnc1 | - | 0 | 0 | - | - | ?
Cc1ccc(NC(=S)Nn2cnnc2)c(C)c1 | - | 0 | 39.8µM | - | - | 10µM
